Test results: ChEMBL document CHEMBL5357018, “Discovery of Malarial Threonyl tRNA Synthetase Inhibitors by Screening of a Focused Fragment Library” (ACS Med Chem Lett, 2024)

Molecular target: T1, threonine--tRNA ligase (Plasmodium falciparum) (UniProt Q8IIA4)
T1 sequence (whole entry): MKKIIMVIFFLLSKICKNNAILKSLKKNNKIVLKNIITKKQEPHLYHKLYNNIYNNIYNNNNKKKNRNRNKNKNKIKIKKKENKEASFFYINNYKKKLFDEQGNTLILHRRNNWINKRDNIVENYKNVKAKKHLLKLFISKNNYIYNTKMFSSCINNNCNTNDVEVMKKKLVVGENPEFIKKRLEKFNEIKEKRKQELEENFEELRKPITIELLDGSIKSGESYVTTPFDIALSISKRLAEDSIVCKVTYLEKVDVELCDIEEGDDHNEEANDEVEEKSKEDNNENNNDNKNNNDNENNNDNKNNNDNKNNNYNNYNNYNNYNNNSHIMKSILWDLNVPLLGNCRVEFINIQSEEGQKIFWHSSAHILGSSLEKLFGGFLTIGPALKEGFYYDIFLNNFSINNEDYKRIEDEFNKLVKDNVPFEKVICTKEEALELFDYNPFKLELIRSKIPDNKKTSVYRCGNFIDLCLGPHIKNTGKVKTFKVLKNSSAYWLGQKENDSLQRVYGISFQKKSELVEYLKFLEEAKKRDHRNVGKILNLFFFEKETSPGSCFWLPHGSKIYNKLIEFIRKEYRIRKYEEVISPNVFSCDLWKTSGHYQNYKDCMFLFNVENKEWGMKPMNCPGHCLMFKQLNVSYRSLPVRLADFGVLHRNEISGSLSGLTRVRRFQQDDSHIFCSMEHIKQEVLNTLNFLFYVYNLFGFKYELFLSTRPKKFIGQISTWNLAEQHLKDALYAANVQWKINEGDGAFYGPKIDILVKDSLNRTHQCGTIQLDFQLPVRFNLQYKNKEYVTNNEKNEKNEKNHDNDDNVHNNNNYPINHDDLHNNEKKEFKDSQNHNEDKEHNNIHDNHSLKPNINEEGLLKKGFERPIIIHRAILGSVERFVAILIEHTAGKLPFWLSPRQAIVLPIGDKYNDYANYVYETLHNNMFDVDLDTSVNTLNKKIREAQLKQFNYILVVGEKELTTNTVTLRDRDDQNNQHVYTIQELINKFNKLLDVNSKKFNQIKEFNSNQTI
Conditions: dose 100.0 µM

SMILES | inhibition [%]
C[C@@H](O)[C@H](N)C(=O)NS(=O)(=O)Nc1ccccc1 | 9
C[C@@H](O)[C@H](N)C(=O)NS(=O)(=O)Oc1cccc2cnccc12 | 33
C[C@@H](O)[C@H](N)C(=O)N[S+]([O-])c1ccccc1 (some centres undefined) | 33
C[C@@H](O)[C@H](N)C(=O)NS(=O)(=O)c1ccccc1 | 26
C[C@@H](O)[C@H](N)C(=O)NP(=O)(O)OCCc1ccccc1 | 30
C[C@@H](O)[C@H](N)C(=O)NS(=O)(=O)Oc1cccc2nccnc12 | 29
C[C@@H](O)[C@H](N)C(=O)NS(=O)(=O)Oc1cccc2ncccc12 | 24
C[C@@H](O)[C@H](N)C(=O)NP(=O)(O)Oc1ccccc1 | 0
C[C@@H](O)[C@H](N)C(=O)NS(=N)(=O)c1ccccc1 (mixture of isomers) | 13
